# Experimental data: patent US20210236664A1, “ALPHA PARTICLE FORMULATIONS FOR TREATMENT OF SOLID TUMORS” (The Johns Hopkins University, priority 2018, published 2021)
# Text: Partition coefficients will be as previously described with some minor modifications. Decristoforo, C., et al., 2008. Octanol and saline (pH=7.4) will be used to assess the […] of the proposed compounds. Briefly, the radiolabeled ^111In- and ^225Ac-labeled DOTA(GA)-alkyl chelates will be vortexed with octanol and saline then centrifuged to separate layers. Aliquots (3) from each layer will be removed and counted. The […] will be determined using the following equations:
# Poct/saline=Log([activity]octanol/[activity]saline).
# A greater than 95% purity was obtained following purification with a Seppak.
substance,measurement,value
^111In-DOTA-octadecylamine [^111In-DOTA-ODA],Log Poct,1.78±0.02
